The numbers were not newly measured in PMC7246635, “Structure–Activity Relationship of RGD-Containing Cyclic Octapeptide and αvβ3 Integrin Allows for Rapid Identification of a New Peptide Antagonist” (International Journal of Molecular Sciences, 2020), which cites them from elsewhere.

Chains of the proteins cited; added tags and fusions are not shown. Residues count along the entry.
UniProt P05106, 27-788 limits assumed: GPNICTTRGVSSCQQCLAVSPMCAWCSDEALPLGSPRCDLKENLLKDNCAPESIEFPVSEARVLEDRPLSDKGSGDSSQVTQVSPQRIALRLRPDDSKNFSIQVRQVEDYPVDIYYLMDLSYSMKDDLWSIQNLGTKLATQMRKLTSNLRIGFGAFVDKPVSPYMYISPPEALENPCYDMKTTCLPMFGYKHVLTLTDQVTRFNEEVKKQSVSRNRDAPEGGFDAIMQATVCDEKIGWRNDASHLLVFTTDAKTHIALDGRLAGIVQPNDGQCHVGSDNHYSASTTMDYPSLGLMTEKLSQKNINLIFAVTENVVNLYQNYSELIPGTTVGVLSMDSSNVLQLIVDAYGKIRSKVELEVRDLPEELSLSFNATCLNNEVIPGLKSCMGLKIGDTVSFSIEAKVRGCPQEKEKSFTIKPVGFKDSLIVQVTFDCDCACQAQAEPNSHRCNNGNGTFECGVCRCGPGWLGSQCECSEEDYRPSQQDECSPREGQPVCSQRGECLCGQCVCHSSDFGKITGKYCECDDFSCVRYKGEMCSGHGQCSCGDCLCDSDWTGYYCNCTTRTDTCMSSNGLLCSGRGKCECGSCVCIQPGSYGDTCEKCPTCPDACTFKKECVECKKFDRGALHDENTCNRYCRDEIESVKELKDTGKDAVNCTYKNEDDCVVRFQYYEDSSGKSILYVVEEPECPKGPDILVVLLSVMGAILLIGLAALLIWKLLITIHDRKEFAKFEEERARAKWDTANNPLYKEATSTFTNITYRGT
UniProt P06756, 31-889 limits assumed: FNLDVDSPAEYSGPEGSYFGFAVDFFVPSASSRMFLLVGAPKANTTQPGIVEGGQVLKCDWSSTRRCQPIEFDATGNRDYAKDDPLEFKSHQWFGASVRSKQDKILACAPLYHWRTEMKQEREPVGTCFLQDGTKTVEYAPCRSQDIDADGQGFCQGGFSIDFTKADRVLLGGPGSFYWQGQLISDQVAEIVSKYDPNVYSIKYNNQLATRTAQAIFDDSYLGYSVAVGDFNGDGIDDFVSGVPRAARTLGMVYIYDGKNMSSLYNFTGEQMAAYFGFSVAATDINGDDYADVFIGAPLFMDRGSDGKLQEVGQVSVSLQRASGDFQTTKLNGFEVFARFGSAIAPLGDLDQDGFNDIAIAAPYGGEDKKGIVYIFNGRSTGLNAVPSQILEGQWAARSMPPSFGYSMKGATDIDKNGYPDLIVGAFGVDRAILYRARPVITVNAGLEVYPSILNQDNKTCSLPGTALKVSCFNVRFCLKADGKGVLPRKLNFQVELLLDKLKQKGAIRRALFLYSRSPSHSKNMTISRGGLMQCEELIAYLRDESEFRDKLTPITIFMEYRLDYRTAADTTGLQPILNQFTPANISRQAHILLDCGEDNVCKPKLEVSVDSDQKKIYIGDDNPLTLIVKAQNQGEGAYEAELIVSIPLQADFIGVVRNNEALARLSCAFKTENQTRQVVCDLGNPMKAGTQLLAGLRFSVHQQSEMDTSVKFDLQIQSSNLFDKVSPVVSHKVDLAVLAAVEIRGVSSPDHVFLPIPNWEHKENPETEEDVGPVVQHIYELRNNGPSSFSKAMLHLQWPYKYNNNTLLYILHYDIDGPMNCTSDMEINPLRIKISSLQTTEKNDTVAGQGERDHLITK
UniProt P06756, 891-1048 partner limits assumed: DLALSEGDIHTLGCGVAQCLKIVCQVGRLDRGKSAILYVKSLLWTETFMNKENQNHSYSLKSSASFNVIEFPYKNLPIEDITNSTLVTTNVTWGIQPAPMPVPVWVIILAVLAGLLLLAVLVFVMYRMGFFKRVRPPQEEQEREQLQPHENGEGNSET

This data set concerns the target αvβ3 integrin (Homo sapiens, UniProt P05106+P06756). The following applies: known IC50s from previous in vitro screening, binding to αvβ3 integrin; Table 3; cited from earlier work. An excerpt: Targeting tumor cells or tumor vasculature by RGD-based strategies is a promising approach for delivering anticancer drugs or contrast agents for cancer therapy and diagnosis. RGD-based strategies include RGD peptide or peptidomimetic drugs, RGD-conjugates, and the grafting of the RGD peptide or peptidomimetic, as targeting ligand, at the surfa ... || (+ 4 further places)

For the molecule `N=C(N)NCCC[C@@H]1NC(=O)CNC(=O)[C@H](N)CSSC[C@H](C(N)=O)NC(=O)[C@@H](Cc2ccc3ccccc3c2)NC(=O)[C@@H](CC(=O)O)NC(=O)[C@H](CC(=O)O)NC(=O)CNC1=O`, the IC50 is 130 nM.
